The entries are a selection whose mix differs from that of the whole data set. Active and inactive are the calls of the source. Rule as the data show it: active = inhibition above about 50%; inconclusive = no clear call, values can overlap the other calls; inactive = below that.
experiment: PubChem AID 1554; conditions: BJeLR (HRASV12) viability, CellTiter-Glo ATP luminescence, 48 h; stronger effect = higher value; concentration not given here

Structure (SMILES) | inhibition
Cc1ccc(NP(C)(=O)Oc2ccccc2)c(C)c1 (centres undefined) | inactive: 9.49%
COc1ccccc1OP(C)(=O)Nc1ccc(C)cc1 (centres undefined) | inactive: -4.97%
ClCCSc1nnc(-c2cccnc2)o1 | inactive: 0.956%
CCOC(=O)c1ccc(NP(C)(=O)Oc2ccccc2)cc1 (centres undefined) | inactive: -8.02%
Cc1ccc2nc3c(c(C)c2c1)CC(C(Cl)Cl)S3 (centres undefined) | inactive: 1.84%
O=[N+]([O-])c1ccc2c(c1)C=Nc1ccccc1O2 | inactive: 3.06%
Cc1cccc(C)c1OP(C)(N)=O (centres undefined) | inactive: 7.39%
CC(C)(C)c1ccc(OP(C)(=O)Nc2ccc(SC(F)(F)F)cc2)cc1 (centres undefined) | inactive: -17.7%
Cc1ccc(OP(=O)(Nc2ccc([N+](=O)[O-])cn2)Oc2ccc(C)cc2)cc1 | inactive: 8.9%
C[As](=O)(O)c1cccc(C(=O)O)c1 | inactive: -1.95%
O=[As](O)(c1ccc(O)cc1)c1ccccc1O | inactive: -0.851%
O=[N+]([O-])c1cc([N+](=O)[O-])c(Nc2cccnc2)c([N+](=O)[O-])c1 | inactive: 3.89%
COc1cc(I)ccc1[As](=O)(O)O | inactive: -3.85%
COc1ccc2nc(NP(=O)(c3ccccc3)c3ccccc3)sc2c1 | inactive: 3.98%
CCN(CC)CCCOC(=O)C(O)(c1ccccc1)c1ccccc1 | inactive: 3.86%
Cc1cc(=O)[nH]c(N[N+](=O)[O-])n1 | inactive: 3.71%
O=C(OC1CN2CCC1CC2)C12CC3CC(CC(C3)C1)C2 (centres undefined) | inactive: 5.56%
Cc1c2c(nc3ccccc13)SC(C(Cl)Cl)C2 (centres undefined) | inactive: -0.953%
CP(=O)(Nc1ccccn1)Oc1ccc(Cl)cc1 (centres undefined) | inactive: -1.74%
CCC(C)N(CC(C)C)C(=S)SC(NC(C)=O)C(Cl)(Cl)Cl (centres undefined) | inactive: 9.22%
O=[N+]([O-])c1cc([N+](=O)[O-])c(O)c([N+](=O)[O-])c1.c1ccc(Oc2ccncc2)cc1 | inactive: 3.93%
CCOC(=O)c1ccc(NP(C)(=O)Oc2ccc(OC)cc2)cc1 (centres undefined) | inactive: 2.61%

Structure (SMILES) | inhibition
CCOC(=O)c1ccc(NC(=O)C(C)(CCl)SC)cc1 (centres undefined) | inactive: -9.17%
O=C(OC1CN2CCC1CC2)c1cccc([N+](=O)[O-])c1 (centres undefined) | inactive: -11.2%
CCOP(C)(=S)SCC(=O)NC(C)C(=O)O (centres undefined) | inactive: -5.79%
O=C(Nc1ccncc1[N+](=O)[O-])c1ccc([N+](=O)[O-])cc1[N+](=O)[O-] | inactive: -3.69%
Cc1cc(C)cc(OP(C)(=O)Nc2ccc(SC(F)(F)F)cc2)c1 (centres undefined) | inactive: 4.69%
CCc1ccc(OP(C)(=O)N2CCN(c3ccc([N+](=O)[O-])cc3)CC2)cc1 (centres undefined) | inactive: 6.05%
CP(=O)(NC(=O)Nc1ccccc1)Oc1ccccc1 (centres undefined) | inactive: -19.9%
O=C(COc1ccccc1)OC1CN2CCC1CC2 (centres undefined) | inactive: 1.89%
CP(=O)(Oc1ccccc1)OC(c1ccccc1)C(F)(F)F (centres undefined) | inactive: -4.39%
CP(=O)(Nc1ccc(SC(F)(F)F)cc1)Oc1ccc(Cl)cc1 (centres undefined) | inactive: -7.76%
Cc1cccc(C)c1OP(C)(=O)Nc1ccc(SC(F)(F)F)cc1 (centres undefined) | inactive: -8.98%
COP1(=S)c2c(C)nn(CCC#N)c2N=C(c2ccc(F)cc2)N1C (centres undefined) | inactive: 13.4%
O=[N+]([O-])c1ccc(Nc2ccc(Oc3ccc([N+](=O)[O-])cc3[N+](=O)[O-])cc2)c([N+](=O)[O-])c1 | inactive: -1.39%
CP(=O)(Nc1ccccc1Br)Oc1ccccc1 (centres undefined) | inactive: -10.5%
COc1ccccc1OP(C)(=O)Nc1ccccc1 (centres undefined) | inactive: -6.94%
Cc1cc(SC(NC=O)C(Cl)(Cl)Cl)ncn1 (centres undefined) | inactive: 3.54%
O=P(Nc1ccccn1)(c1cccc2ccccc12)c1cccc2ccccc12 | inactive: 7.92%
CCOC(=O)Nc1cccc([As](=O)(O)O)c1 | inactive: 2.91%
CP(=S)(Nn1cnnc1)Oc1ccccc1 (centres undefined) | inactive: -12.1%
Cc1cc(SC(NC(=O)c2ccccc2)C(Cl)(Cl)Cl)nc(C(C)C)n1 (centres undefined) | inactive: -2.84%
CCCCOc1ccc(C(=O)NCC2(N3CCCCC3)CCCCC2)cc1OC | inactive: -10.7%
CCOC(=O)Nc1ccc([As](=O)(O)O)c(O)c1 | inactive: -7.77%

From PubChem BioAssay AID1554 (Broad Institute, 2009)
